Measured values reported in ChEMBL document CHEMBL1154976, “Effect of linker substitution on the binding of butorphan univalent and bivalent ligands to opioid receptors” (Bioorg Med Chem Lett, 2010).

Tests used:
Homo sapiens [1] = organism: Homo sapiens; experiment: Selectivity ratio of Ki for human mu opioid receptor to Ki for human kappa opioid receptor
Homo sapiens [2] = organism: Homo sapiens; experiment: Selectivity ratio of Ki for human delta opioid receptor to Ki for human kappa opioid receptor

SMILES: Oc1ccc2c(c1)[C@@]13CCCC[C@H]1[C@@H](C2)N(CC1CCC1)CC3
- Ratio Ki (Homo sapiens [1]): 3
- Ratio Ki (Homo sapiens [2]): 75
